PubChem BioAssay AID709 (SRMLSC, 2007)
This is a selection; strong and weak results do not stand in their true shares. The source made the active and inactive calls.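 Rule for the calls: active = at 10 µM, mean starting fluorescence two-fold or more over control wells; inactive = the rest.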

test: intrinsic fluorescence of library compounds, ex339/em460 – biochemical, MLSMR library, data from DPM-DC assay, artefact control, profiling panel (AID 709); details: compound autofluorescence, ex339/em460 nm, NADH buffer; at 10 µM; active compounds read high; 1 = no-compound wells, NADH background;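 note: signal is the first read of a kinetic run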

SMILES	fluorescence fold increase
CCOc1ncccc1C(=O)NCC1(N2CCOCC2)CCCCC1	inactive: 1.05
CCC(CO)(C(=O)OC1CN2CCC1CC2)c1ccccc1 (configuration not stated)	inactive: 1.08
Fc1ccccc1NC1CCN(Cc2ccccc2)CC1	inactive: 1
N/C(=N\O)c1c(N)no[n+]1[O-]	inactive: 1.05
N#CC1(Nc2ccccc2)CCN(CCc2ccccc2)CC1	inactive: 1.07
COc1ccc(NC2CCN(CCc3ccccc3)CC2)c(OC)c1	inactive: 1.05
O=C(OC1CN2CCC1CC2)C1c2ccccc2Oc2ccccc21 (configuration not stated)	inactive: 1.07
